How the values were obtained:
D(2) dopamine receptor [1] = target: T1, D(2) dopamine receptor (Homo sapiens, UniProt P14416); experiment: biochemical; type: cell-based, HEK293
D(2) dopamine receptor [2] = target: T1, D(2) dopamine receptor; experiment: biochemical; type: cell-based, HEK293; remark: listed apart in the source

Sequences of proteins named here, by UniProt entry; tags and fusion partners are left off.
UniProt P14416, whole entry: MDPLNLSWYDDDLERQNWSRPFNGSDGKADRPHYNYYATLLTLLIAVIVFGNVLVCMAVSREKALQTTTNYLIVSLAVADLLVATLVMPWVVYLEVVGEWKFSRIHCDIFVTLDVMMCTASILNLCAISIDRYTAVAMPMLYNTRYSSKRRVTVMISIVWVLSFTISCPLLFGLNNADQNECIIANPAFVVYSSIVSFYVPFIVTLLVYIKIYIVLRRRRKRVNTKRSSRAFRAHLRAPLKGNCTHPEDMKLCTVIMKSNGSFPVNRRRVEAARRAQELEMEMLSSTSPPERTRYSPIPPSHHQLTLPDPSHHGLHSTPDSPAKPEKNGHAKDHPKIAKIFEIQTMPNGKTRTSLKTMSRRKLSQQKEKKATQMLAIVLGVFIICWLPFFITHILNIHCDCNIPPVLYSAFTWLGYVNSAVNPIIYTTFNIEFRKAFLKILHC

CCCN1CCC[C@@H](c2cccc(O)c2)C1 [PRECLAMOL]
Ki (D(2) dopamine receptor [1]): 2.27 µM | Ki (D(2) dopamine receptor [2]): 0.0174 µM
